# Measured values from ChEMBL document CHEMBL1240340, “Targeted polypharmacology: discovery of dual inhibitors of tyrosine and phosphoinositide kinases” (Nat Chem Biol, 2008).
# Target: Phosphatidylinositol 4,5-bisphosphate 3-kinase catalytic subunit beta isoform (Homo sapiens, UniProt P42338)
row,SMILES,IC50 [nM]
1,Cn1nc(-c2ccc(OCc3ccccc3)cc2)c2c(N)ncnc21,> 50000
2,Cn1nc(-c2cccc(-c3ccccc3)c2)c2c(N)ncnc21,> 50000

# Target: Serine/threonine-protein kinase mTOR (Homo sapiens, UniProt P42345)
row,SMILES,IC50 [nM]
1,Nc1ncnc2c1c(-c1ccc3[nH]ccc3c1)nn2C1CCCC1,407
2,Cn1nc(-c2ccc(Br)c(O)c2)c2c(N)ncnc21,548
3,COc1ccc(-c2nn(C3CCC(C)C3)c3ncnc(N)c23)cc1O (stereo not given),170
4,Nc1ncnc2c1c(-c1cc(O)cc(F)c1)nn2C1CCCC1,10000
5,CC(C)n1nc(-c2ccc3occc3c2)c2c(N)ncnc21,3400
6,Nc1ncnc2c1c(-c1ccc(Cl)c(O)c1)nn2C1CCCC1,439
7,COc1ccc(-c2nn(C(C)(C)C)c3ncnc(N)c23)cc1OC,> 50000
8,CC(C)n1nc(-c2ccc3cc[nH]c3c2)c2c(N)ncnc21,467
9,COc1ccc(-c2nn(C(C)C)c3ncnc(N)c23)cc1OC,3100
10,Nc1ncnc2c1c(-c1ccc(F)c(O)c1)nn2C1CCC1,1500
11,CC(C)n1nc(-c2ccc3nc[nH]c(=O)c3c2)c2c(N)ncnc21,20
12,CC(C)n1nc(-c2cc(F)c(O)cc2F)c2c(N)ncnc21,1130
13,Cc1ccc(-c2nn(C)c3ncnc(N)c23)cc1O,861
14,CC(C)n1nc(-c2cc(O)cc(Br)c2)c2c(N)ncnc21,30000
15,Cc1ccc2cc(-c3nn(C(C)C)c4ncnc(N)c34)ccc2n1,565
16,CC(C)n1nc(-c2ccc3ccncc3c2)c2c(N)ncnc21,1500
17,CC(C)n1nc(-c2cnc3nccnc3c2)c2c(N)ncnc21,6800
18,CC(C)n1nc(-c2cnc3ccccc3c2)c2c(N)ncnc21,1900
19,CC(C)n1nc(-c2ccn3ccnc3c2)c2c(N)ncnc21,7600
20,C[C@H](CN)n1nc(-c2ccc(F)c(O)c2)c2c(N)ncnc21,11000
21,COc1ccc(-c2nn(C3CNC3)c3ncnc(N)c23)cc1O,5100
22,CCOc1ccc(-c2nn(C3CCCC3)c3ncnc(N)c23)cc1OC,6500
23,Nc1ncnc2c1c(-c1ccc(Cl)c(O)c1)nn2CC1CCNC1 (stereo not given),4800
24,CC(C)n1nc(-c2ccc3cnccc3c2)c2c(N)ncnc21,2200
25,Nc1ncnc2c1c(-c1ccc(F)c(O)c1)nn2C1CCCCCC1,1100
26,Cn1nc(-c2ccc3occc(=O)c3c2)c2c(N)ncnc21,> 50000

row,SMILES,IC50 [nM]
1,CC(C)(C)OC(=O)n1ccc2cc(-c3nn(C4CCCC4)c4ncnc(N)c34)ccc21,576
2,CC(C)n1nc(-c2cnc3[nH]ccc3c2)c2c(N)ncnc21,60
3,CC(C)n1nc(-c2ccc3nccc(NC(=O)OC(C)(C)C)c3c2)c2c(N)ncnc21,3200
4,Nc1ncnc2c1c(-c1ccc(Cl)c(O)c1)nn2CC1CCCNC1 (stereo not given),3200
5,CC(C)n1nc(-c2cccc(CO)c2)c2c(N)ncnc21,5400
6,C[C@@H](CN)n1nc(-c2ccc(F)c(O)c2)c2c(N)ncnc21,2900
7,CC(C)n1nc(-c2ccc(C#N)nc2)c2c(N)ncnc21,5800
8,CC(C)n1nc(-c2ccc(O)cc2)c2c(N)ncnc21,6000
9,Nc1ncnc2c1c(-c1ccc(Cl)c(O)c1)nn2CC1CCCN1 (stereo not given),15000
10,Nc1ncnc2c1c(-c1ccc3occc3c1)nn2C1CCCC1,1600
11,CC(C)n1nc(-c2cc(F)c3cn[nH]c3c2)c2c(N)ncnc21,7000
12,CCOc1ccc(-c2nn(C3CCCC3)c3ncnc(N)c23)cc1O,110
13,CC(C)n1nc(-c2ccc3nc(N)ccc3c2)c2c(N)ncnc21,33
14,CC(C)n1nc(-c2ccc3cc(O)ccc3c2)c2c(N)ncnc21,109
15,CC(C)n1nc(-c2ccc3c(ccn3C)c2)c2c(N)ncnc21,457
16,CC(C)n1nc(-c2ccc3nccnc3c2)c2c(N)ncnc21,632
17,CC(C)n1nc(-c2cccnc2)c2c(N)ncnc21,5500
18,Nc1ncnc2c1c(-c1ccc3[nH]ncc3c1)nn2C1CCCC1,1100
19,Nc1ncnc2c1c(-c1ccc(Cl)c(O)c1)nn2C1CCC1,230
20,CC(C)n1nc(-c2ccc3c(N)n[nH]c3c2)c2c(N)ncnc21,1640
21,CC(C)n1nc(-c2cccc(C#N)c2)c2c(N)ncnc21,40000
22,CC(C)n1nc(-c2ccc3occc(=O)c3c2)c2c(N)ncnc21,1300
23,Nc1ccc(-c2nn(C3CCCC3)c3ncnc(N)c23)cc1O,911
24,Nc1ncnc2c1c(-c1ccc3cn[nH]c3c1)nn2C1CCCC1,596
25,N#CCCCCn1nc(-c2ccc(F)c(O)c2)c2c(N)ncnc21,833
26,CC(C)n1nc(-c2cccc(NS(C)(=O)=O)c2)c2c(N)ncnc21,5000

# Target: Tyrosine-protein kinase HCK (Homo sapiens, UniProt P08631)
row,SMILES,IC50 [nM]
1,CC(C)n1nc(-c2cc(F)c3cn[nH]c3c2)c2c(N)ncnc21,76
